Values of other authors in patent US8486429B2, “Storage stable formulation and a process for its preparation” (priority 2005, dated 2013).

System: crop plants
Conditions: in vivo; cited from earlier work

CCN(CC)C(=O)C(Cl)=C(C)OP(=O)(OC)OC [Phosphamidon, 2-chloro-2-diethylcarbamoyl-1-methylvinyldimethylphosphate]
phytotoxicity: non-phytotoxic, except some varieties of cherry, plum, peach and sorghum
